Results from patent publication US12398123B2, “Chemical inhibition of the E3 ligase subunit FBXO7 confers neuroprotection and anti-inflammatory activity by stabilizing mitochondria” (University of Pittsburgh—Of the Commonwealth System of …, priority 2017, dated 2025).

Assays:
Fbxo7 mRNA = assay: steady-state Fbxo7 mRNA by quantitative real-time PCR in H9C2 cells; type: cell-based, rat; conditions: 16 h, normalized to GAPDH
[1] = molecular target: T1, interaction between Fbxo7 and Pink1 (Homo sapiens, UniProt Q9Y3I1); assay: in vitro binding assay: TnT synthesized Pink1 pulled down with drug bound Fbxo7 beads; conditions: increasing amounts of compound; immunoblot of pull-down
T1 sequence (Q9Y3I1 1-522): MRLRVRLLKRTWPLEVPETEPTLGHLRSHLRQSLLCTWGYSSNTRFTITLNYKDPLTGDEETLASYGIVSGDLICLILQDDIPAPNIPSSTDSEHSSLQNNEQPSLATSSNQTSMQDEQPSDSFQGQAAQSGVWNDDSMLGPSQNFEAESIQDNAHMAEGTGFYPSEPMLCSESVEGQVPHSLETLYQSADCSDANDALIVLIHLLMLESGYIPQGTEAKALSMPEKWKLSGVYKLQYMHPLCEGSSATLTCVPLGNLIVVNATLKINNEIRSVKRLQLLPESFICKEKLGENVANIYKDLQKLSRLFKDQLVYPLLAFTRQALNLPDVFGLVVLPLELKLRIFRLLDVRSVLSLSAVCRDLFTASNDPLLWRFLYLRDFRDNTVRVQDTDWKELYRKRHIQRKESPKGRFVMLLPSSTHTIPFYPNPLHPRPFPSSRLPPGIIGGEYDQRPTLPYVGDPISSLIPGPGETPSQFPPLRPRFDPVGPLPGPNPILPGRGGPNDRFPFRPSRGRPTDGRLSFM

Pink1 mRNA = assay: steady-state Pink1 mRNA by quantitative real-time PCR in H9C2 cells; type: cell-based, rat; conditions: 16 h, normalized to GAPDH
[2] = system: primary human fibroblasts; conditions: 400 μM MPP+ for 16 h
Pink1 = Pink1 protein levels in BEAS-2B cells by immunoblotting; conditions: indicated concentrations, 16 h
H9C2 cells = assay: tBHP-induced mitochondrial injury in H9C2 cells, MitoTracker Red flow cytometry; conditions: 100 ng/ml 16 h, tBHP 100 μM 45 min

Compound	mRNA levels of Fbxo7 (Fbxo7 mRNA)	interaction between Fbxo7 and Pink1 [1]	mRNA levels of Pink1 (Pink1 mRNA)	protection against MPP+ (% cell death) [2]	Pink1 protein levels in cells (Pink1)	protection from tBHP-induced mitochondrial injury (H9C2 cells)
O=C(CCCn1c(SCC(=O)NCC2CCCO2)nc2ccccc2c1=O)NCc1ccccc1 (centres unmarked) [BC1464]	Neither BC1464 nor the control compound, BC1465, affected the mRNA levels	efficiently decreased the interaction between Fbxo7 and Pink1	Neither BC1464 nor the control compound, BC1465, affected the mRNA levels	conferred significant protection in all three primary human fibroblast cultures	increased Pink1 protein levels in cells in a dose dependent manner	
N#Cc1ccccc1Cn1c(=O)n(CCCC(=O)NCc2ccc3c(c2)OCO3)c(=O)c2ccccc21 [BC1465, reference compound]	Neither BC1464 nor the control compound, BC1465, affected the mRNA levels		Neither BC1464 nor the control compound, BC1465, affected the mRNA levels			less effective ability to prevent tBHP-induced mitochondrial injury
